Drawing on EP4585599A1, “NITROGEN-CONTAINING FUSED RING COMPOUND, INTERMEDIATE THEREOF, PREPARATION METHOD THEREFOR AND USE THEREOF” (Hangzhou Synrx Therapeutics Biomedical Technology Co., Ltd., priority 2022, dated 2024), this text covers IC50 for two compounds.

Sequences of proteins named here, by UniProt entry; tags and fusion partners are left off. Residues count along the entry.
UniProt O75417, 102-554 limits assumed: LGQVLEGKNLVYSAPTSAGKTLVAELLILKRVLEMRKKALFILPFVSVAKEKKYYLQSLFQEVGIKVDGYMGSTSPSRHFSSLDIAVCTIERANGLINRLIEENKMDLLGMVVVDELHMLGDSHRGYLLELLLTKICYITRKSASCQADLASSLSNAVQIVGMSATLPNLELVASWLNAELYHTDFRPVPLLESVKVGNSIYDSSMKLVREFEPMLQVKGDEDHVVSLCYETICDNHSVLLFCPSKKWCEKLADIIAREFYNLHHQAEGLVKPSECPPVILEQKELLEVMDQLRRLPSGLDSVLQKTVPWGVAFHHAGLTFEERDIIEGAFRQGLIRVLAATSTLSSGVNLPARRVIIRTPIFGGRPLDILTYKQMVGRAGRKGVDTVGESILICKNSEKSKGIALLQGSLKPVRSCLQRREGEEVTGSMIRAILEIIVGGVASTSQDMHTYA

The target in the experiment is helicase domain of the Pol θ protein (Homo sapiens, UniProt O75417). Description: Biochemical Activity Assay (ADP Glo Assay) of Pol θ inhibitor, ATPase activity. The conditions noted are these: read-out: Biochemical assay IC50, ssDNA substrate, tested form: free base. For orientation: ADP-Glo first removes unused ATP, then detects ADP through luciferase.

In general, IC50 refers to the point on the concentration scale where inhibition reaches its midpoint. As for `COc1cnc(Cl)cc1-c1cc(C)ncc1C(=O)Nc1nc2ccc(N3[C@@H]4CC[C@H]3C[C@H](O)C4)nc2s1`, the IC50 was found to be 46.4 nM.

As for `COc1cnc(Cl)cc1-c1cc(C)ncc1C(=O)Nc1nc2ccc(N3[C@@H]4CC[C@H]3C[C@@H](O)C4)nc2s1`, the IC50 worked out at 49.4 nM.
